The assay has as its target T1, rat intestinal sucrase (Rattus norvegicus, UniProt P23739).
T1 construct: the supernatant obtained was used as enzyme source; tissue Sigma Aldrich, St. Louis (USA); host or cells: rat intestinal acetone powder (supernatant of the saline homogenate)
Kind of assay: Intestinal α-glucosidase inhibitory assay, sucrose as substrate. It counts as biochemical. The conditions noted are these: rat intestinal acetone powder, sucrose 56 mM, 60 min. Here is the method: Intestinal α-glucosidase activity was determined by measuring the amount of glucose hydrolyzed from maltose or sucrose. Briefly, rat intestinal acetone powder was homogenized in 0.9% saline and the suspension was centrifuged at 10,000 g for 30 min at 4°C and the supernatant obtained was used as enzyme source. […] After the respective incubation period, reaction was terminated by keeping the samples in boiling water bath for 10 min. The concentration of glucose released from the reaction mixtures was determined by using Glucose oxidase (GOD POD) kit according to the manufacturer’s protocol. Results were expressed as percentage inhibition of intestinal maltase/sucrase activity.

Sequences of proteins named here, by UniProt entry; tags and fusion partners are left off. A change or cut given only in a name is not applied to a line headed by its entry.
UniProt P23739: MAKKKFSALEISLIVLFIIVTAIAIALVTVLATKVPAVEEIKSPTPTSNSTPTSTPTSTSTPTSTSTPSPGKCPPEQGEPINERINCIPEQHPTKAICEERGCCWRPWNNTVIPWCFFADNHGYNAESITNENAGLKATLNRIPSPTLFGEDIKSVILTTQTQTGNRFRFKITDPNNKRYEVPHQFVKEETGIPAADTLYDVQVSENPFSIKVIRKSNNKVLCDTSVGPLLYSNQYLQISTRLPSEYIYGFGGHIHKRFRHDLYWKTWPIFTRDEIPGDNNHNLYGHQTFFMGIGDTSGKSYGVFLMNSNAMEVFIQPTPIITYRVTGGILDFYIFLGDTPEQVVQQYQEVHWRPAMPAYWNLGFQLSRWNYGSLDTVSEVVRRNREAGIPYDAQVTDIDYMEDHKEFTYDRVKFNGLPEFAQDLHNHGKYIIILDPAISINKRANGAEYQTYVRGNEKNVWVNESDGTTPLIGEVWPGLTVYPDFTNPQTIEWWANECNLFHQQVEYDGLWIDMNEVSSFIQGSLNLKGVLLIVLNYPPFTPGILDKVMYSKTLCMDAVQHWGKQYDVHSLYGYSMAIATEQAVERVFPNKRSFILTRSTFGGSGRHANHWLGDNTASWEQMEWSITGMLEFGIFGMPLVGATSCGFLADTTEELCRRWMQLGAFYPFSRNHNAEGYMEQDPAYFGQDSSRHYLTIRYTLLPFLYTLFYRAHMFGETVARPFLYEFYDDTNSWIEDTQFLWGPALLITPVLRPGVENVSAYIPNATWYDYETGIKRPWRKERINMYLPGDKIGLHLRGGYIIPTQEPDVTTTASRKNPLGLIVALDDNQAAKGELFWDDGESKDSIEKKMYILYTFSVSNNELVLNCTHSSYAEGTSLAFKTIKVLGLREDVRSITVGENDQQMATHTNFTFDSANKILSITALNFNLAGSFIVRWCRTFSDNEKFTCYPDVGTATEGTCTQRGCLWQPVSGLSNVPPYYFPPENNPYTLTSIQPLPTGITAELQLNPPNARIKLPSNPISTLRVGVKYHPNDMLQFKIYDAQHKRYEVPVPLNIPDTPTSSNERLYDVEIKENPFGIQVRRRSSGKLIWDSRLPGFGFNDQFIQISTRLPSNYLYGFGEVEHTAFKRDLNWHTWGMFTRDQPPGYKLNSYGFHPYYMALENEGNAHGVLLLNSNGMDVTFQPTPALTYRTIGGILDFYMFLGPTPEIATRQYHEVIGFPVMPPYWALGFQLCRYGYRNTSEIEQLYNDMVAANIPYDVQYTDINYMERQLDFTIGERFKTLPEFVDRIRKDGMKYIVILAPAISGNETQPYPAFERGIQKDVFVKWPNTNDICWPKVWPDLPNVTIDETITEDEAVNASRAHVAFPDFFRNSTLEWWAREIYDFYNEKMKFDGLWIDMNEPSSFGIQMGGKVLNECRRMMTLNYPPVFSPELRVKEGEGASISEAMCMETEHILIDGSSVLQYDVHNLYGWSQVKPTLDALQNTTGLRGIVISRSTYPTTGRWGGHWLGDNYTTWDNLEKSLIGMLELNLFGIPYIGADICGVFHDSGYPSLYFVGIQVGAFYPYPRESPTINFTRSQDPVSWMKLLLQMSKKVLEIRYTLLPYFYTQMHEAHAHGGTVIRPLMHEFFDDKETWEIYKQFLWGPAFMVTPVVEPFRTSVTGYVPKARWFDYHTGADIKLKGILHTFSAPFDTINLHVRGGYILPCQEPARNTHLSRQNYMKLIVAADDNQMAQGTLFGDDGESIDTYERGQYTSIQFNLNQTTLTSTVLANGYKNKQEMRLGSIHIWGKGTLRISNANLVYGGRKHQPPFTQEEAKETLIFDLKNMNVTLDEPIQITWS

By pIC50 is commonly meant −log10 of the IC50, conventionally taken in molar units. The low end stands for a high IC50, the high end for a low IC50.

pIC50: −log10 of the molar value.

Turning to `C[C@H]1O[C@H](O[C@H]2[C@H](O)[C@@H](O)[C@@H](O[C@H]3[C@H](O)[C@@H](O)C(O)O[C@@H]3CO)O[C@@H]2CO)[C@H](O)[C@@H](O)[C@@H]1N[C@H]1C=C(CO)[C@@H](O)[C@H](O)[C@H]1O` (stereo partly shown) [Acarbose, reference compound], the pIC50 was 5.40.

The record behind these values is PMC4105438, “Novel Benzoxazine-Based Aglycones Block Glucose Uptake In Vivo by Inhibiting Glycosidases” (PLoS ONE, 2014).
